{"source": "patent US8304182B2", "about": "“Methods of identifying anti-cancer agents and uses thereof” (The Trustees of the University of Pennsylvania, priority 2003, dated 2012)", "key": {"[1]": {"test_system": "Clone HP17 (bax^−/−bak^−/−, shPARP-1) MEFs", "assay": "Cell death assay by PI exclusion, Clone HP17 MEFs"}, "[2]": {"test_system": "ATP", "assay": "Determination of cellular ATP", "assay_type": "cell-based, mouse", "settings": "for cellular ATP level: 30 min treatment, FIG. 2C"}, "[3]": {"test_system": "isolated DNA", "assay": "Assaying isolated DNA for strand breaks", "settings": "cells growing in the presence or absence of IL-3"}, "[4]": {"test_system": "p53^−/− MEFs", "assay": "Cell death assay by PI exclusion, p53^−/− MEFs", "assay_type": "cell-based, mouse", "settings": "20 h following treatment, FIG. 1"}, "[5]": {"test_system": "bax^−/−bak^−/− cells", "assay": "Transmission electron microscopy of cell death morphology, bax^−/−bak^−/− cells", "settings": "0.5 mM MNNG or 2 μM staurosporine, 9 h"}, "[6]": {"test_system": "HMGB1", "assay": "HMGB1 localization and release (immunofluorescence, immunoblotting)", "settings": "0.5 mM MNNG"}, "[7]": {"assay": "Determination of cellular NAD", "assay_type": "cell-based, mouse"}, "[8]": {"test_system": "parp-1^−/− MEFs", "assay": "Cell death assay by PI exclusion, parp-1^−/− MEFs", "settings": "parp-1^−/− cells"}, "[9]": {"test_system": "Mouse bone marrow derived macrophages", "assay": "TNFα production by macrophages given culture medium of treated MEFs", "assay_type": "cell-based", "settings": "TNFα 24 h later"}, "[10]": {"test_system": "wild-type cells", "assay": "Transmission electron microscopy of cell death morphology, wild-type cells", "settings": "0.5 mM MNNG or 2 μM staurosporine, 9 h"}, "[11]": {"test_system": "PARP-1 and lamin B1", "assay": "Immunoblotting of caspase cleavage of PARP-1 and lamin B1", "assay_type": "cell-based, mouse", "settings": "bax^−/−bak^−/− cells, lysed after 8 h, FIG. 4C"}, "[12]": {"test_system": "PARP", "assay": "PARP activation by immunoblotting of poly(ADP-ribose) (PAR)", "settings": "for PARP activation (increase of poly(ADP-ribose) polymers): MNNG 0.5 mM, FIG. 2A; for poly(ADP-ribosyl)ation upon treatment: versus vector, FIG. 3B"}, "[13]": {"test_system": "IL-3-dependent hematopoietic bax^−/−bak^−/− cells", "assay": "Cell death assay by PI exclusion, IL-3-dependent bax^−/−bak^−/− cells", "assay_type": "cell-based, mouse"}, "[14]": {"test_system": "bax^−/−bak^−/− MEFs", "assay": "Cell death assay by PI exclusion, bax^−/−bak^−/− MEFs", "assay_type": "cell-based, mouse"}, "[15]": {"test_system": "wild-type MEFs", "assay": "Cell death assay by PI exclusion, wild-type MEFs"}, "[16]": {"test_system": "cytochrome c", "assay": "Cytochrome c immunofluorescence", "settings": "6 h, FIG. 4B"}, "[17]": {"settings": "IL-3-dependent cells, 0.5 mM MNNG 15 min, subcellular fractionation, FIG. 6E"}}, "data": [{"smiles": "CN(N=O)C(=N)N[N+](=O)[O-]", "values": [{"measurement": "cells remained viable", "setting": "[1]; HP17 cells, 0.25 mM MNNG, three days after the treatment, FIG. 3G", "value": 90, "unit": "%"}, {"measurement": "cell death", "setting": "[1]; HP17 cells, within 20 hours following 0.5 mM MNNG, FIG. 3E/F", "value": "essentially no cell death"}, {"measurement": "cell death (PI exclusion)", "setting": "[1]; clone HP17, 20 h after treatment, FIG. 3D", "value": "no cell death was observed"}, {"measurement": "ATP levels", "setting": "[2]; Clone HP17, 30 min treatment, FIG. 3C", "value": "maintained"}, {"measurement": "total cellular ATP level", "setting": "[2]; IL-3-dependent bax^−/−bak^−/− cells cultured in the presence of IL-3, FIG. 6D", "value": "drastically decreased"}, {"measurement": "total cellular ATP level", "setting": "[2]; IL-3-dependent bax^−/−bak^−/− cells deprived of IL-3, p<0.01, FIG. 6D", "value": "preserved"}, {"measurement": "cellular ATP level", "setting": "[2]; bax^−/−bak^−/− cells", "value": "dose-dependent decrease"}, {"measurement": "cellular ATP level", "setting": "[2]; wild-type cells", "value": "dose-dependent decrease"}, {"measurement": "DNA damage (strand breaks)", "setting": "[3]", "value": "equivalent amounts of DNA damage"}, {"measurement": "cell death (cell survival by PI exclusion)", "setting": "[4]", "value": "as sensitive as wild-type cells"}, {"measurement": "morphologic features of cell death by electron microscopy", "setting": "[5]", "value": "morphologic changes characteristic of necrosis"}, {"measurement": "HMGB1 localization", "setting": "[6]; bax^−/−bak^−/− MEFs, 6 hours following treatment", "value": "translocation of HMGB1 from nucleus to the cytosol"}, {"measurement": "HMGB1 release into extracellular environment", "setting": "[6]; wild-type and bax^−/−bak^−/− MEFs, 16 hours after treatment", "value": "HMGB1 could be found in the extracellular environment"}, {"measurement": "cellular NAD level", "setting": "[7]; IL-3-dependent bax^−/−bak^−/− cells, with and without IL-3, FIG. 6D", "value": "decreased to a similar extent"}, {"measurement": "cytosolic NAD", "setting": "[7]; [17]", "value": "reduced cytosolic NAD to minimal levels"}, {"measurement": "mitochondrial NAD", "setting": "[7]; [17]", "value": "not significantly affected"}, {"measurement": "cellular NAD level", "setting": "[7]; bax^−/−bak^−/− cells, 30 min treatment, FIG. 2B", "value": "dose-dependent decrease"}, {"measurement": "cellular NAD level", "setting": "[7]; wild-type cells, 30 min treatment, FIG. 2B", "value": "dose-dependent decrease"}, {"measurement": "cells alive", "setting": "[8]; 0.25 mM MNNG, three days after the treatment, FIG. 3G", "value": "over 30%"}, {"measurement": "cells died", "setting": "[8]; within 20 hours following 0.5 mM MNNG, FIG. 3E/F", "value": 30, "unit": "%"}, {"measurement": "TNFα production by macrophages", "setting": "[9]; culture medium from treated bax^−/−bak^−/− MEFs, MNNG 0.5 mM 15 min", "value": "induced TNFα production"}, {"measurement": "TNFα production by macrophages", "setting": "[9]; culture medium from treated wild-type MEFs, MNNG 0.5 mM 15 min or STS 2 μM 2 h", "value": "induced TNFα production"}, {"measurement": "morphologic features of cell death by electron microscopy", "setting": "[10]", "value": "morphologic changes characteristic of necrosis"}, {"measurement": "biochemical apoptotic hallmarks incl. caspase cleavage of PARP-1 and lamin B1", "setting": "[11]", "value": "none of the biochemical apoptotic hallmarks tested"}, {"measurement": "PARP activation (poly(ADP-ribosyl)ation), vegetative versus proliferating cells", "setting": "[12]; IL-3-dependent bax^−/−bak^−/− cells with or without IL-3, MNNG 15 min, FIG. 6C", "value": "Equivalent increases in poly(ADP-ribosyl)ation"}, {"measurement": "PARP activation (increase of poly(ADP-ribose) polymers)", "setting": "[12]; bax^−/−bak^−/− MEFs", "value": "activated equally"}, {"measurement": "poly(ADP-ribosyl)ation upon treatment", "setting": "[12]; clone HP11 (bax^−/−bak^−/− MEF, PARP-1 shRNA, moderate knock-down)", "value": "moderately decreased"}, {"measurement": "poly(ADP-ribosyl)ation upon treatment", "setting": "[12]; clone HP17 (bax^−/−bak^−/− MEF, PARP-1 shRNA)", "value": "significantly decreased"}, {"measurement": "PARP activation (increase of poly(ADP-ribose) polymers)", "setting": "[12]; wild-type MEFs", "value": "activated equally"}, {"measurement": "viability over time", "setting": "[13]; 0.5 mM MNNG in the presence of IL-3", "value": "continued to decline over the first 72 hours"}, {"measurement": "cell death (PI exclusion)", "setting": "[13]; IL-3-deprived cells (2 d), 24 h after 15 min treatment, FIG. 6A", "value": "resistant"}, {"measurement": "cell viability", "setting": "[13]; IL-3-deprived cells, 0.5 mM MNNG, IL-3 added 24 hour after treatment, viability 48 hours later", "value": "greater than 85%"}, {"measurement": "cell death (PI exclusion)", "setting": "[13]; IL-3 stimulated cells adapted to low glucose (withdrawn from glucose over 48 hours), FIG. 7C", "value": "resistance to MNNG-induced death that was comparable to that of IL-3-deprived cells"}, {"measurement": "cell death (PI exclusion)", "setting": "[13]; cells proliferating in response to IL-3, 24 h after 15 min treatment, FIG. 6A", "value": "killed by MNNG in a dose-dependent manner"}, {"measurement": "sensitivity to MNNG-induced cell death, confluent serum-deprived versus subconfluent with serum", "setting": "[14]; bax^−/−bak^−/− MEFs, 0.5 mM MNNG 15 min, 24 h, FIG. 6B", "value": "less sensitive"}, {"measurement": "cell death (cell survival by PI exclusion)", "setting": "[14]; bax^−/−bak^−/− MEFs, 20 h following treatment, FIG. 1", "value": "as sensitive as wild-type cells"}, {"measurement": "cell death", "setting": "[14]; bax^−/−bak^−/− cells, within 20 hours following 0.5 mM MNNG, FIG. 3E/F", "value": "All wild-type and bax^−/−bak^−/− cells died"}, {"measurement": "cell death (PI exclusion)", "setting": "[14]; vector control bax^−/−bak^−/− cells, 20 h after treatment, FIG. 3D", "value": "killed all"}, {"measurement": "sensitivity to MNNG-induced cell death, confluent serum-deprived versus subconfluent with serum", "setting": "[15]; wild-type MEFs, 0.5 mM MNNG 15 min, 24 h, FIG. 6B", "value": "less sensitive"}, {"measurement": "cell death", "setting": "[15]; wild-type cells, within 20 hours following 0.5 mM MNNG, FIG. 3E/F", "value": "All wild-type and bax^−/−bak^−/− cells died"}, {"measurement": "cytochrome c distribution", "setting": "[16]; bax^−/−bak^−/− cells", "value": "no change of cytochrome c distribution pattern was observed"}, {"measurement": "cytochrome c release", "setting": "[16]; wild-type cells (BMK)", "value": "Cytochrome c release was observed in some cells"}]}]}
